# GLP1R inv ag – GLP-1 receptor (human) inverse agonism; P43220; HEK293 GLP-1R CRE-luciferase, luminescence, 24 h; GLP-1R form is constitutively active; Potency, µM (highest dose often 38.3 µM), usual class: inhibitors; 1.6% of 410,000 active; AID 624417; further: nearly all actives have a fitted effect of over 55% in size
#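 Constitutively active GLP-1R drives a cAMP-responsive luciferase in stably transfected HEK293 cells; test compounds are added after overnight (12 h) attachment and left 24 hr, and signal loss in luminescence marks inhibition.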
# miR-21 FLuc – raises the signal of a miR-21 reporter; 340,000 tested, under 10 active; HeLa miR-21 FLuc reporter, luciferase, 48 h; Potency, µM (series often up to 38.3 µM); active = well fitted rising curve with a large enough effect; inconclusive = small, poorly fitted or top-dose-only effect; inactive = no such curve, though single readings can be large or run the other way;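 further: miR-21 action dims this reporter so a rising signal means less miR-21 action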
#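 Luminescence from a firefly luciferase reporter carrying a miR-21 binding site downstream, stably expressed under a CMV promoter in HeLa cells that make miR-21 endogenously, reports miRNA modulation after 48 h compound exposure up to approximately 40uM final.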
# HEK293 tox – cytotoxic in the GLP-1 receptor inverse agonist counter-screen; AID 624418; HEK293 cAMP-luciferase reporter cells, luminescence, 24 h; Potency, µM (doses to about 38.3 µM), actives largely listed as inhibitors; 0.13% of 410,000 active;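 further: loss of luciferase light is scored as toxicity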
#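 Here, cytotoxicity is scored as loss of luminescence. The MLSMR collection was tested on cells seeded in medium containing 10% Nu serum, with a 24 hr compound exposure preceded by 12 hours of culture.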
# GLP1R ag – GLP-1 receptor (human) agonism; P43220; HEK293 GLP-1R CRE-luciferase, luminescence, 4-6 h; cells express a hypersensitive GLP-1R form; Potency, µM (top dose mostly 45.6 µM), hits mostly activators; 0.007% of 380,000 active; AID 624172
# PTHR1 ag – activates the human parathyroid hormone receptor PTHR1; HEK293 GP2 PTHR1 cells, GloSensor cAMP luminescence, 1 h; AID 743266; Potency, µM (titrated, usually from 115 µM), most hits filed as activators; 0.075% of 410,000 active; Q03431; further: nearly all actives have a fitted effect of over 55% in size
#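 HEK-293-derived GP2 cells expressing PTHR1 and a GloSensor cAMP reporter, 3,000/well, plated overnight, given luciferin plus IBMX (each 0.5 mM as added) for 1 h at 37 °C, then compound for 1 h at 37 °C. Luminescence was read after 15 min at room temperature.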
# Pin1 inh – blocks the human prolyl isomerase Pin1. 0.009% of 390,000 active. Pin1 FP peptide displacement, HiFluor488, 10 min. Q13526. Potency, µM (top dose mostly 115 µM), actives largely listed as inhibitors; active means well fitted inhibition curve with a large enough effect in the polarisation, with a control signal flat, not every such curve was filed as active; inconclusive means small, poorly fitted or top-dose-only effect, or effect the other way, or a change in a side signal; inactive means no such curve, though single readings can be large or run the other way; the % refers to the polarisation
# A number is an active result; – = inactive; ? = inconclusive; · = no result given; ! = a repeat was not active. Most compounds without a hit are left out; they make up all but 1.7% or so of the library. Unless noted, the call rests on the fitted dose curve; in most records, active means well fitted curve in the direction sought with a large enough effect; inconclusive means small, poorly fitted or top-dose-only effect, or another doubt; inactive means no such curve, though single readings can be large; an effect the other way counts as inactive or inconclusive.
SMILES,GLP1R inv ag,miR-21 FLuc,HEK293 tox,GLP1R ag,PTHR1 ag,Pin1 inh
COc1ccc(CNCC(O)COc2ccc3[nH]c(=O)ccc3c2)cc1OC (stereo not given),·,·,·,–,·,·
CCOC(=O)c1ccc(OCCN2C[C@H](O)[C@@H](O)[C@H](O)[C@H]2CO)cc1,·,·,·,–,·,·
CCOC(=O)c1cnc2ccc(C)cc2c1Nc1ccc(OCc2ccccc2Cl)cc1,11µM,–,–,·,–,–
CCCn1ccc2c(OCC(=O)Nc3ccc(F)cc3F)cccc2c1=O,–,–,–,·,–,–
COC(=O)[C@]12CCCCC=C1N(Cc1ccc(Cl)cc1Cl)C(=O)[C@H](CC(=O)N1CCC(c3ccccc3)CC1)C2,11µM,·,–,–,–,·
COc1ccccc1CNc1cc(-c2ccccc2)nc2nncn12,–,?,–,·,–,–
CC(=O)Oc1ccc(/C=N/NC(=O)c2ccc(N(C)S(=O)(=O)c3ccccc3)cc2)cc1,?,–,–,–,–,–
COc1cc(NC(=O)c2ccc(S(=O)(=O)N(C)c3ccccc3)cc2)cc(OC)c1,10µM,·,–,–,–,–
Cc1ccc(/C=N/NC(=O)c2ccc(N(C)S(=O)(=O)c3ccccc3)cc2)cc1,10µM,–,–,–,–,–
Cc1ccccc1-c1noc(-c2ccc(NCc3ccco3)c([N+](=O)[O-])c2)n1,–,–,–,·,–,–
COc1cc(/C=N/NC(=S)NC2CC3CC2C2C=CCC32)ccc1O (stereo not given),?,–,4.5µM,?,–,–
CCOc1ccc(/C=N/NC(=S)NC2CC3CC2C2C=CCC32)cc1 (stereo not given),?,–,?,–,–,–
Cc1cc(C)cc(NC(=S)NCC2CCN(C(C)c3ccccc3)C2)c1 (stereo not given),10µM,–,–,–,–,–
CC(C)NC(=S)NC(=O)c1ccc(-c2ccccc2)cc1,10µM,–,?,–,–,?
O=C(NC(=S)Nc1ccc(-c2ccccc2)cc1)c1ccccc1,?,·,?,–,–,–
CCc1cc2c(Sc3nc4ccccc4s3)ncnc2s1,3.5µM,–,–,–,–,–
O=C(c1ccc2c(=O)n(CCc3ccccc3)c(=O)[nH]c2c1)N1CCN(C(=O)c2ccco2)CC1,·,·,·,·,·,–
CCOc1ccc(-c2nnc(-c3ccccc3)o2)cc1,5µM,–,–,–,–,–
CCOc1ccc(-c2nnc(-c3ccc(OC)cc3)o2)cc1,–,–,–,–,–,–
CC(=O)NNC(=O)c1[nH]c2ccc(Br)cc2c1-c1ccccc1,10µM,–,–,–,–,–
CCOC(=O)NNC(=O)c1[nH]c2ccc(Br)cc2c1-c1ccccc1,10µM,–,?,–,–,–
COc1ccccc1NC(=O)Cn1c(=O)c(CNc2ccccc2)cc2cc(OC)c(OC)cc21,–,–,–,·,–,?
CCOc1ccccc1Nc1nc(-c2ccc(C)cc2)c(CC(=O)O)s1,?,–,–,·,?,–
COc1ccc(Cn2ncc3c4sc(C)cc4n(C)c3c2=O)cc1F,·,·,·,·,·,–
CCCn1c2ccc(C)cc2c2nnc(SCCN3CCCCC3)nc21,7.1µM!,–,–,–,–,?
SMILES,GLP1R inv ag,miR-21 FLuc,HEK293 tox,GLP1R ag,PTHR1 ag,Pin1 inh
COc1ccc(F)cc1S(=O)(=O)NCC(c1ccco1)S(=O)(=O)c1cccs1 (stereo not given),–,–,–,·,–,–
C/C(=N\NC(=O)C(C)n1nc(C)c([N+](=O)[O-])c1C)c1ccccc1O (stereo not given),?,?,3.2µM,–,–,–
Cc1nn(C(C)C(=O)NCc2ccco2)c(C)c1[N+](=O)[O-] (stereo not given),–,–,–,–,–,–
COc1ccc(C(=O)NC2CC2)cc1OC1CCN(Cc2ccc(F)cc2Cl)CC1,10µM,·,?,–,–,–
COc1ccc(C2C=C3CNS(=O)(=O)C3CC2OC(=O)c2cccc(C)c2)cc1 (stereo not given),·,·,·,·,·,–
O=C(Nc1ccc(F)cc1F)c1sccc1SCc1cccc(C(F)(F)F)c1,10µM,–,–,–,–,–
Cc1ccc(Sc2ccc(NC(=O)CCN3C(=O)NC4(CCCC4)C3=O)cc2)c(C)c1,11µM,·,–,–,–,–
CCOC(=O)c1nn(-c2ccccc2)c(-c2ccccc2)c1C(=O)c1ccccc1,2.8µM,–,–,–,–,–
CCOC(=O)c1nn(-c2cccc(OC)c2)c(-c2ccccc2)c1C(=O)c1ccccc1,5.6µM,–,–,–,–,–
CCOC(=O)c1nn(-c2ccc(F)cc2)c(-c2ccccc2)c1C(=O)c1ccccc1,?,–,–,–,–,–
O=C(CNC(=S)N(Cc1ccccc1)Cc1cccs1)NCc1ccc(F)cc1,2.8µM,–,–,–,–,–
O=C(CNC(=S)N(Cc1ccccc1)Cc1ccccc1F)NCCc1ccc(Cl)cc1,4µM,–,–,–,–,–
O=C(Cc1ccc(Cl)cc1)NCCc1ccc(F)cc1,?,·,–,–,–,–
Cc1c(Cl)cccc1NS(=O)(=O)c1cc2c(cc1Cl)CCC(=O)N2,·,·,·,·,·,–
COc1ccc(/C=N/Nc2cc(C)nc(-n3nc(C)cc3C)n2)c(OC)c1,1.3µM,–,?,–,–,–
CCOc1cc(/C=N/Nc2cc(C)nc(-n3nc(C)cc3C)n2)ccc1O,–,?,?,–,–,–
C[C@@H](O[C@H]1OCCN(Cc2n[nH]c(=O)[nH]2)[C@@H]1c1ccc(F)cc1)c1cc(C(F)(F)F)cc(C(F)(F)F)c1,·,·,·,–,·,·
CC(=O)C1=C(c2ccc(Br)cc2)C(=O)c2ccccc2C1=O,?,?,3.5µM,–,–,–
CNC1=C(N(C(C)=O)c2ccc(Br)cc2)C(=O)c2ccccc2C1=O,?,–,?,–,–,–
O=[N+]([O-])c1ccc(N=Nc2ncc[nH]2)cc1,?,?,5.6µM,–,–,–
CCC(=O)N1CCc2cc(Br)cc(S(=O)(=O)CCC(=O)NCCc3cccc(C)c3)c21,–,–,–,·,–,?
N#CC(C#N)=C(Nc1ccc(F)cc1)SCc1cccc(Br)c1,2µM,?,–,–,–,–
Cc1cccc(CSC(Nc2ccc(F)cc2)=C(C#N)C#N)c1,?,?,?,–,–,–
CC12CCC(C(=O)N3CCCc4ccccc43)(CC1=O)C2(C)C (stereo not given),–,–,–,–,–,–
CC12CCC(C(=O)N3CCc4ccccc43)(CC1=O)C2(C)C (stereo not given),13µM,–,–,–,–,–
COC(=O)c1ccccc1S(=O)(=O)Nc1cc(=O)c2ccccc2[nH]1,·,·,·,·,·,–
O=C(NNc1ccc(C2CCCCC2)cc1)C(O)(c1ccccc1)c1cccs1 (stereo not given),–,–,?,–,–,–
